Two molecules from patent publication US20170183383A1 (JIANG XIANXING, published 2017) can be followed below.

Bounds are passed on as bounds.

Test in all cases: cell-based or functional assay
For assay [1], the target named is human glucagon-like peptide-1 receptor (human) (UniProt P43220).
Assay [2] deals with human glucagon receptor (human) (UniProt P47871).
Assay [3] has as its target human glucagon-like peptide-1 receptor (human, UniProt P43220 24-463).

Exenatide (peptide) came in with a GLP-1R (EC50, nM), CRE-luciferase in HEK-293 cells in assay [1] of 0.02 nM. Moreover, the GCGR (EC50, nM), CRE-luciferase in HEK-293 cells in assay [2] was over 100 nM.
As to HSQGTFTSDYSKYLDSRRAQDFVQWLMNTKRNKNNIA (ligand) [Oxyntomodulin], the “GLP-1R (EC50, nM), CRE-luciferase in HEK-293 cells” value in assay [3] is 2.5 nM.
